Measured values published in patent US9308215B2, “Avermectins and milbemycins as anti-mycobacterial agents” (priority 2013, dated 2016).

Tested on: Mycobacterium tuberculosis (H37Rv)
Conditions: for Log10 cfu reduction (lungs): Acute (SCID)

Compound | activity in vivo in acute TB model (10 mg/kg and 50 mg/kg dose, oral) | Log10 cfu reduction (lungs) (10 mg/kg bw PO, sesame oil) [Log10 cfu] | Log10 cfu reduction (lungs) (50 mg/kg bw PO, sesame oil) [Log10 cfu] | Log10 cfu reduction (lungs) (100 mg/kg bw PO, sesame oil) [Log10 cfu] | Log10 cfu reduction (lungs) (200 mg/kg bw PO, sesame oil) [Log10 cfu] | Log10 cfu reduction (lungs) (1 mg/kg bw PO, 5% DMSO) [Log10 cfu] | Log10 cfu reduction (lungs) (10 mg/kg bw PO, 5% DMSO) [Log10 cfu]
CO[C@H]1C[C@H](O[C@@H]2/C(C)=C/C[C@@H]3C[C@@H](C[C@]4(CC[C@H](C)[C@@H](C5CCCCC5)O4)O3)OC(=O)[C@@H]3C=C(C)/C(=N/O)[C@H]4OC/C(=C\C=C\[C@@H]2C)[C@]43O)O[C@@H](C)[C@@H]1O [Selamectin] | showed activity | −0.42 | −0.62 | −0.23 | −0.23 | – | –
CO[C@H]1/C=C/O[C@@]2(C)Oc3c(C)c(O)c4c(O)c(c(/C=N/N5CCN(C)CC5)c(O)c4c3C2=O)NC(=O)/C(C)=C\C=C\[C@H](C)[C@H](O)[C@@H](C)[C@@H](O)[C@@H](C)[C@H](OC(C)=O)[C@@H]1C [Rifampin] | – | – | – | – | – | −0.08 | −1.17

Read-outs that look alike come from different tables or passages of the source.
